The target of assay [1] is T1, cPLA2 (Homo sapiens, UniProt P47712). In words: Soluble substrate assay (LysoPC). Conditions: read-out: IC50 (μM) Lyso PC; NA = inhibitory activity not detected. The source says:
(§1) Tables I-VI also report data for the listed compounds in the “LysoPC” assay and the Coumarine assay (see Example 88 below). In the data columns of the tables, assay results are reported as an “IC50” value, which is the concentration of a compound which inhibits 50% of the activity of the phospholipase enzyme in such assay. Where no numerical IC50 value appears, “NA” denotes that inhibitory activity was not detected from such compound in the corresponding assay and a blank box denotes that the compound was not tested in such assay as of the time of filing of the present application.
(b) Soluble Substrate Assay (LysoPC)
1-[^14C]-palmitoyl-2-hydroxyphosphotidyl-choline (57 mCi/mmol) (final concentration 4.4 μM) was dried under a stream of nitrogen. The lipid was resuspended by vortexing 80 mM Hepes pH 7.5, 1 mM EDTA (1.2×final concentration). A typical assay consisted of lipid suspension (85 μl) to which was added consecutively the inhibitor (5 μl in DMSO) and cPLA2, 200 ng in 80 mM Hepes pH 7.5, 2 mM DTT and […]. This assay was conducted by either the manual assay or automated assay protocol described below.

Amino acid sequences for entries named in this document (tags omitted).
UniProt P47712, whole entry: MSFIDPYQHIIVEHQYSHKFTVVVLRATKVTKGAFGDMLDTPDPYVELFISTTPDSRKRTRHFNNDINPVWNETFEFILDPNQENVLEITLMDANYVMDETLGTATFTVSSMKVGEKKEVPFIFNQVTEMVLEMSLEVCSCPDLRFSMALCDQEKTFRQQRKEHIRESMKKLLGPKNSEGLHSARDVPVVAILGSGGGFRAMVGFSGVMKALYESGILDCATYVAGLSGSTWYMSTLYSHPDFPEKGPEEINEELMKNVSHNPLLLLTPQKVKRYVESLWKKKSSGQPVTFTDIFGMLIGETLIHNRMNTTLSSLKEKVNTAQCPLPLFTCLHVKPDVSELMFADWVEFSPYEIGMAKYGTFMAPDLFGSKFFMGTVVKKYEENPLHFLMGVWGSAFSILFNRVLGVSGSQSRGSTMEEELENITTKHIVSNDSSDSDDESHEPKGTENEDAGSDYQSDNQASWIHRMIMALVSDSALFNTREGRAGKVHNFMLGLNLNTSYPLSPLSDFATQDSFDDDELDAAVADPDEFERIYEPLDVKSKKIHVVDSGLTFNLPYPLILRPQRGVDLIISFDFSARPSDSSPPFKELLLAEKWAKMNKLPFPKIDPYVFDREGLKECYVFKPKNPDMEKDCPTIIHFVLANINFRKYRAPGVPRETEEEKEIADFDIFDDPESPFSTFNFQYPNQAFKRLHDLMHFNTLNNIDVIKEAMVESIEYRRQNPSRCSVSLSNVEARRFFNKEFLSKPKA

Assay [2] deals with T1, cPLA2. In words: Coumarine assay (7-hydroxycoumarinyl 6-heptenoate hydrolysis). Conditions: read-out: IC50 (μM) Coumarine; 60 μM 7-hydroxycoumarinyl 6-heptenoate.
Source text: as §1
7-hydroxycoumarinyl 6-heptenoate was used as a monomeric substrate for cPLA2 as reported previously (Huang, Z. et al., 1994, Analytical Biochemistry 222, 110-115). Inhibitors were mixed with 200 μL assay buffer (80 mM Hepes, pH 7.5, 1 mM EDTA) containing 60 μM 7-hydroxycoumarinyl 6-heptenoate. The reaction was initiated by adding 4 μg cPLA2 in 50 μL assay buffer. Hydrolysis of the 7-hydroxycoumarinyl 6-heptenoate ester was monitored in a fluorometer by exciting at 360 nm and monitoring emission at 460 nm. Enzyme activity is proportional to the increasein emission at 460 nm per minute. In the presence of a cPLA2 inhibitor, the rate of increase is less.

Results on one molecule are retold here after US6630496B1, “Inhibitors of phospholipase enzymes” (Genetics Institute LLC, priority 1996, dated 2003).

What is called IC50 is the concentration needed to halve the response being measured. As to `COc1ccc(C(=O)O)cc1NC(=O)CSCC1Cc2cc(OCc3ccccc3)ccc2N1C(=O)c1ccc2ccccc2c1` (centres unmarked), the IC50 was 12.1 µM at cPLA2 [1] and over 20 µM at cPLA2 [2].
